Apparent affinities of Ab-14 variants for a coronavirus HR2 peptide

Antigen: PDVDLGDISGINAS, a 14-residue peptide of the SARS-CoV-2 spike HR2 region.

Parent: Ab-14, a human scFv built as VH, a 15-residue (Gly4Ser)3 linker, VL. Only the CDRs of the heavy chain vary.
VH: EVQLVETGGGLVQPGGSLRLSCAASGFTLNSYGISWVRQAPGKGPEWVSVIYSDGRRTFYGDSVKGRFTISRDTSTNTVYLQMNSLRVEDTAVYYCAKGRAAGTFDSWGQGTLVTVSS
VL: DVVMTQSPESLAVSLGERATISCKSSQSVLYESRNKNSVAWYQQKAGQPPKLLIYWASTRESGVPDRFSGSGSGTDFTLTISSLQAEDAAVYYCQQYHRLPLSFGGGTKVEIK

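The parent was found by panning a naive human phage display library on the peptide. This is the validation round: designs drawn from the data on random variants, tested in the same kind of assay. Group labels follow the data file (Ctrl: baseline library sampled from a position-specific scoring matrix, with some repeated check sequences; En: ensemble of fine-tuned language models; GP: Gaussian process model; GPLM: also part of the Gaussian process libraries; HC: hill climbing; Gen: genetic algorithm; Gibbs: Gibbs sampling; a sequence that several methods proposed may carry one label only). The scFvs were displayed on barcoded MATa yeast, the peptide on MATalpha yeast. Binding brings cells together so that they mate, and sequencing counts the barcode pairs among the diploids. Each replicate has its own calibration line, from reference interactions of the BCL2 family. Each pool was mated in six replicate cultures.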

Variants are written as CDR1, CDR2 and CDR3 of the heavy chain (limits as in the source). Parent: GFTLNSYGIS, VIYSDGRRTFYGDSVK, GRAAGTFDS.
Numbers give log10(Kd / nM), so 0 is 1 nM and 3 is 1 µM. Smaller is tighter.
The mean shown is taken over the replicates in which the pair was detected.
A pair that was not seen in that replicate is written "nd"; this usually means weak binding, but a binder can also be missed.
A sequence measured in both rounds can read differently, since the two assays cover different ranges.

CDR-H1	CDR-H2	CDR-H3	group	log10 Kd, replicates	mean, log10 nM
GFTLNSYGIS	VIYADGRRTFYGDSVK	RRTAGTFDA	Ctrl	nd / nd / nd / nd / nd / nd	nd
GFTLNMYGIS	VIYSDGRRTFYGDSVR	GRAAGTFDS	Ctrl	nd / 1.42 / nd / 2.32 / nd / 2.60	2.11
GFDLNEYGIS	VIYADGMRTAYANSVK	GETAGTFDQ	En_Gen	0.09 / 0.13 / -0.22 / -0.40 / 0.35 / 0.47	0.07
GNTLDEYGIS	VIYADGVRMAYINKFK	GMDTGTFDQ	En_Gibbs	nd / nd / nd / nd / nd / nd	nd
GFTLNDYGIS	VIYSDGRRTFYGDSVK	GRAAGTFSD	GPLM_HC	1.03 / 1.38 / 1.49 / 1.22 / 1.27 / 0.60	1.16
GFTLNQYGIS	VIYSDGRRTFYGDSVK	GKAAGTFDS	Ctrl	0.99 / 0.95 / 0.95 / 0.35 / 0.84 / 3.40	1.25
GFDLESYGIS	VIYADGRRTFYSDSVK	GKNAGTFDI	En_HC	-0.64 / -0.70 / -0.65 / -0.79 / -0.97 / -0.62	-0.73
GFNLNEYGIS	VIYADGRRTFYADSVK	GGEAGTFDV	En_HC	-0.40 / -0.74 / -0.69 / -0.46 / -0.67 / -0.50	-0.58
GFTLNSYGIS	VIYSDGQRTFYADSVK	GRQAGTFDS	GPLM_Gibbs	0.44 / 0.19 / 1.27 / 0.78 / 0.73 / 0.54	0.66
GFTLQDYGIS	VIYSDGRRTFYGDSVK	GRMAGTFDQ	Ctrl	nd / 0.16 / nd / 0.88 / 1.53 / 1.12	0.92
GFQLNEYGIS	VIYSDGRRTQYIDSVK	GRAAGTFDS	GP_HC	0.58 / 0.43 / 0.14 / 0.59 / 2.74 / 1.11	0.93
GKSLNSYGIS	VIYSDGRRTAYGDSVK	GRAAGTFDS	GP_Gen	2.90 / 2.03 / 1.23 / 2.91 / 1.77 / 2.81	2.27
GFTLNEYGIS	VIYSDGRRTFYGDSVK	GRTAGTFDV	GPLM_Gen	-0.48 / -0.35 / -0.39 / -0.60 / -0.43 / -0.20	-0.41
GFELNSYGIS	VIYSDGRRTAYGDSVK	GREAGTFDS	GP_Gen	0.81 / 0.60 / 0.76 / 0.55 / 0.72 / 0.66	0.68
HFELNSYGIS	VIYSDGRRTFYADSVK	GRQAGTFDS	GP_Gen	0.58 / 1.83 / 0.76 / 0.34 / 0.60 / 1.24	0.89
GFTLNSYGIS	VIYSDGRRTFYGDDVK	GNTAGTFDV	GP_Gibbs	0.34 / 0.02 / 0.02 / -0.22 / 0.18 / -0.01	0.06
LFTLNEYGIS	VIYSDGRRTFYRDSVK	GRTAGTFDS	GP_HC	nd / -0.53 / -0.77 / 0.85 / 0.50 / -0.61	-0.12
GFDLDEYGIS	VIYADGMRTYYADSVK	GNVAGTFDM	En_Gen	0.03 / -0.27 / -0.09 / -0.42 / -0.24 / -0.07	-0.18
GFTLNSYGIS	VIYSDGRRTFYGDSVK	GRAAGIFDS	Ctrl	nd / nd / nd / nd / nd / nd	nd
GFTLNSYGIS	VIYSDGQRTFYSDSVK	GQTAGTFDS	GP_Gibbs	0.98 / -0.11 / 0.20 / 0.33 / 0.26 / 0.90	0.43
GFNLNEYGIS	VIYADGRRTFYTDSVK	GEFAGTFDQ	En_HC	-0.31 / -0.64 / -0.71 / -0.94 / -0.73 / 0.31	-0.50
GFDLNSYGIS	VIYSDGRRTFYGDDVK	GRAAGHFKS	GP_HC	nd / nd / nd / nd / nd / nd	nd
GFSLNEYGIS	VIYSDGRRTFYGDSVK	GKAAGTFDF	GPLM_Gen	0.45 / 0.37 / 0.32 / 0.30 / 0.04 / 0.57	0.34
GFDLNEYGIS	VIYADGMRTAYTDSVK	GNEAGTFDT	En_HC	-1.42 / -0.47 / -0.83 / -1.62 / -1.26 / -1.51	-1.19
GFDLNEYGIS	VIYADGQRSFYADSVK	GQLAGTFDS	En_HC	0.37 / -0.46 / -0.95 / -1.62 / -1.41 / -1.13	-0.87
GFDLDEYGIS	VIYADGMRTFYADSVK	GQNAGTFDQ	En_HC	0.25 / 0.20 / 0.03 / -0.14 / 0.06 / 0.13	0.09
GFELNSYGIS	VIYSDGRRTFYADSVK	GRAAGTFDT	GP_Gen	nd / nd / nd / nd / nd / nd	nd
GFDLNSYGIS	VIYSDGRRTFYGDSVK	GRAAGRFDS	Ctrl	nd / nd / nd / nd / nd / nd	nd
GFNLNSYGIS	VIYSDGRRTFYGDSVK	GRQAGTFDS	GPLM_Gen	0.89 / 0.53 / 0.99 / 0.18 / 0.42 / 1.05	0.68
GSKLDEYGIS	VIYADGKRSFYSNNVK	GGKAGGTTV	En_Gibbs	nd / nd / nd / nd / nd / nd	nd
GDKLEDYGIS	VIYADGRRSYYVENVK	GEYAGYFDV	En_Gibbs	nd / nd / nd / nd / nd / 3.22	3.22
GFNLNEYGIS	VIYADGRRTFYTDDVK	GEHAGTFDL	En_HC	-0.60 / -1.86 / -1.45 / nd / nd / -1.95	-1.46
GFTLKSYGIS	VIYADGRRTFYGDSVK	GKAAGTFDS	GPLM_Gen	0.34 / 0.41 / 0.98 / 1.12 / 1.14 / 1.38	0.90
GFELNSYGIS	VIYSDGRRTFYKDSVK	GQTAGTFDS	GPLM_Gibbs	0.64 / 0.88 / 0.07 / 1.35 / 0.31 / 0.23	0.58
GFDLNEYGIS	VIYADGQRTFYIDNVK	GQLNVVVNA	En_Gibbs	nd / nd / nd / nd / nd / nd	nd

In the paper, a design with two or fewer of six values counts as a poor binder.
The parent sequence was in this pool as ten entries: three were never detected, three once, and four in most replicates, with averages from 0.34 to 2.37.
Background: pairings of all heavy chain designs with three empty control strains gave a value in 1% of cases (median 2.08, 5th percentile 0.84). Values in that range, when seen in few replicates, are hard to tell from nonspecific mating.

Reference: Li et al. 2023, doi:10.1038/s41467-023-39022-2. File: FLAb, binding data.